The target in the test is T1, Serine/threonine-protein phosphatase 5 (Homo sapiens) (UniProt P53041).
T1 sequence (whole entry): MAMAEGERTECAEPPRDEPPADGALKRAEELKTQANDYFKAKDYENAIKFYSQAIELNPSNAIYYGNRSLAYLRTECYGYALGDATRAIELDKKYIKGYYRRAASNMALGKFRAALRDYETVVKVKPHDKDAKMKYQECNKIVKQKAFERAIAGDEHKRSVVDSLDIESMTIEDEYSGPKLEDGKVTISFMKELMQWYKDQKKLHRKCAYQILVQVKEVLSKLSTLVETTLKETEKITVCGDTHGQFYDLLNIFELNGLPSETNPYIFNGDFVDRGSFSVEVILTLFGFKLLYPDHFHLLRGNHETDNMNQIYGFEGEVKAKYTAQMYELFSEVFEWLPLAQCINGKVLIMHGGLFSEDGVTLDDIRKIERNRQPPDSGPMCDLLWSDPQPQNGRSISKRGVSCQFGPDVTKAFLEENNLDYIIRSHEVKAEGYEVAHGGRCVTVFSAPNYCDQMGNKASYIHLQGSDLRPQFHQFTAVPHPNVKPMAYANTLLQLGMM
The test can be described thus: Activation of His-tagged human PP5 extracted from Escherichia coli BL21 using pNPP as substrate assessed as fold increase in phosphatase activity at 50 uM incubated for 30 mins by spectrophotometric analysis. The note with it: filed as activator.

For `N=c1oc2cc(F)cc(F)c2cc1C(N)=S`, the fold change (FC) stood at 2.9.

These data come from ChEMBL document CHEMBL5579878, “Allosteric Activation of Protein Phosphatase 5 with Small Molecules” (J Med Chem, 2024).
